# How the values were obtained:
# Sequences of proteins named here, by UniProt entry; tags and fusion partners are left off. Residues count along the entry.
# UniProt P43220, 24-463: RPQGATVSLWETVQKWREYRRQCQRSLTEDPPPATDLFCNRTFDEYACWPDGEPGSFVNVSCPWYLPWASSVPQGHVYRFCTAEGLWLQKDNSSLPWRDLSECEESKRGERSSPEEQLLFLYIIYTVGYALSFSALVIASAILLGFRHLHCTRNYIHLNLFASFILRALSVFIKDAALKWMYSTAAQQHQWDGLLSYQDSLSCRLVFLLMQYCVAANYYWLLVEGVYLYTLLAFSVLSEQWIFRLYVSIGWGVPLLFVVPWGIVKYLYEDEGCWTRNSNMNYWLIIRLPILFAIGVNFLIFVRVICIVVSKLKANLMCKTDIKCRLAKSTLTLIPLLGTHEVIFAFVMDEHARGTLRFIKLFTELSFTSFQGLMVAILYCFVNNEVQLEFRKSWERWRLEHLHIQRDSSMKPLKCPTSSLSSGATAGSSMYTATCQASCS
# [1] = system: overweight or obese subjects with type 2 diabetes mellitus; assay: Phase 1/2 multiple-ascending-dose study of G933, Cohorts 1-6 (efficacy, PK, safety); assay type: in vivo, human
# Experimental: Approximately 75 overweight or obese subjects with relatively well controlled type 2 diabetes mellitus (T2DM) are enrolled to participate in the study. The enrolled subjects meet the following inclusion and exclusion criteria.
# Part A consists of 3 cohorts.
# Part B consists of 1 cohort.
# The initial dose is 100 μg.
# Approximately 32 overweight or obese subjects with relatively well controlled type 2 diabetes mellitus (T2DM) are enrolled to participate in the study. The enrolled subjects meet the inclusion and exclusion criteria described in Example 5 with the following exceptions:
# Inclusion Criteria: • Cohort 5 and 6 subjects must be willing and able to self-administer daily subcutaneous (SC) injections following an initial self-injection of placebo (or normal saline) during the screening period.
# A randomized, double-blind, multiple-ascending dose study is performed. This study consists of 2 cohorts: cohort 5 and cohort 6. […] Cohorts 5 and 6 have approximately 32 subjects total and are run in parallel.
# The study consists of an inpatient up-titration evaluation period beginning on Day 3 for both Cohorts 5 and 6 and an outpatient follow-up period. The first 4 days and the final day of dosing at 300 μg […].
# Subjects are admitted to the clinic as described in Example 5 for Cohorts 1-4. […] Subjects have a second inpatient period for the initiation of the 300 μg dose ending on the fourth day at that dose followed by at-home self administration.
# Additional time points include before commencing the 300 μg dose (Day 16 for Cohort 5 and Day 11 for Cohort 6) and at the end of dosing (Day 22 for Cohort 5 and Day 17 for Cohort 6). The MMT are performed as described in Example 5.
# Human GLP1R = Human GLP1R (Homo sapiens, UniProt P43220); conditions: calculated from variation in cAMP generation with HSA concentration
# [2] = based on monkey AUC data
# [3] = Stability testing of peptides in plasma; assay type: in vitro ADME; conditions: human plasma, 37° C., 24 h
# Experimental: The stability in plasma of the peptideS […], […], […] and […] was determined as follows. […] The spiked plasma samples were gently mixed and allowed to equilibrate for about 5 minutes before start of experiment. The plasma samples were incubated for 48 hours in a GalaxyR CO2 incubator at 37° C. […] The samples were stored at -70° C. until analysis. Plasma samples were assayed as follows. […] After mixing and centrifugation, 100 μl the supernatant was transferred to a new plate and 1 μl was injected onto an analytical column. The analysis was performed using a μLC-system ([…]) coupled to a medium high resolution mass spectrometer (Perkin Elmer PenTOF) with positive electrospray ionisation. […] Flow: 0.1 ml/min using a slow reversed phase gradient. […] Cleavage products arise from the action of the protease DPP IV in plasma. Both the degradation of the peptides and formation of peptide products were reported in percentage of the initial peptide concentration. Peaks were integrated and % remaining peptide was calculated: […] Levels of deamidation and DPP IV cleavage were low for […] and […].
substance,measurement,setting,value
L-Histidyl-L-seryl-L-glutaminylglycyl-L-threonyl-L-phenylalanyl-L-threonyl-L-seryl-L-alpha-aspartyl-(N6-[N-(1-oxohexadecyl)-L-gamma-gutamyl])L-lysy-L-sery-L-alpha-glutamyl-L-tyrosyl-L-leucyl-L-alpha-aspartyl-L-seryl-L-alpha-glutamyl-L-arginyl-L-alanyl-L-arginyl-L-alpha-L-aspartyl-L-phenylalanyl-L-valyl-L-alanyl-L-tryptophyl-L-leucyl-L-alpha-glutamyl-L-alanylglycylglycine [Peptide G933],vomiting events,[1]; Cohort 1,no vomiting events were reported
same,active patients with vomiting events,[1]; Cohort 2,two
same,vomiting events,[1]; Cohort 2,three
same,active patients with vomiting events,[1]; Cohort 3,three
same,vomiting events,[1]; Cohort 3,thirteen
same,patients with decreased appetite,[1]; Cohort 3 (six patients),85.7%
same,systolic or diastolic blood pressure,[1]; Cohort 4,No increase
same,patients who vomited,[1]; Cohort 4 (8 patients),32.0%
same,patients with nausea,[1]; Cohort 4 (13 patients),52.0%
same,Subject with At lease one G933-related event,"[1]; Cohort 4, 200 μg, N = 25",20 (80.0%)
same,Subject with At least one G933-related serious event,"[1]; Cohort 4, 200 μg, N = 25",0
same,Subject with At least one event,"[1]; Cohort 4, 200 μg, N = 25",22 (88.8%)
same,Subject with At least one event leading to discontinuation of G933,"[1]; Cohort 4, 200 μg, N = 25",3 (12.0%)
same,Subject with At least one event of ≥ grade 3 severity,"[1]; Cohort 4, 200 μg, N = 25",0
same,Subject with At least one serious event,"[1]; Cohort 4, 200 μg, N = 25",0
same,Subject with Death (grade 5 severity),"[1]; Cohort 4, 200 μg, N = 25",0
same,increase in heart rate,"[1]; Cohort 4, Day 13",12.8 bpm
same,increase in heart rate,"[1]; Cohort 4, Day 41",6.9 bpm
same,patients with nausea,[1]; Cohort 5 (3 patients),27.3%
same,patients with vomiting,[1]; Cohort 5 (3 patients),27.3%
same,heart rate increase from baseline,"[1]; Cohort 5, 22 days administration",approximately 7.6 BPM
same,patients with vomiting,[1]; Cohort 6 (1 patient),8.3%
same,patients with nausea,[1]; Cohort 6 (5 patients),41.7%
same,heart rate increase from baseline,"[1]; Cohort 6, 17 days administration",approximately 5.9 BPM
same,systolic or diastolic blood pressure,[1]; Cohorts 1-3,No significant change
same,patients with nausea,[1]; Cohorts 1-3 (6 patients),31.6%
same,patients with vomiting,[1]; Cohorts 1-3 (n=5),26%
same,patients with cardiac adverse events,[1]; Cohorts 1-3 (seven patients),36.8%
same,patients with gastrointestinal adverse events,[1]; Cohorts 1-3 (thirteen patients),68.4%
same,samples confirmed positive for anti-G933 antibody,"[1]; Cohorts 1-3, post baseline",one
same,half life,"[1]; Cohorts 1-3, repeat dosing",approximately 11 hours
same,ambulatory systolic/diastolic blood pressure (SBP/DBP),[1]; Cohorts 5 and 6,no increase from baseline
same,rate of vomiting,[1]; Cohorts 5 and 6 together,16%
same,rate of nausea,[1]; Cohorts 5 and 6 together (8/24),33%
same,half-life,"[1]; dose range 100-300 μg, all cohorts",8 to 11 h
same,increase in pulse rate,[1]; each of Cohorts 1-3,about 10 bpm
same,Between-subject variability in Cmax,[1]; larger Cohort 4,40-50%
same,Between-subject variability in Cmax,[1]; smaller cohorts,20-30%
same,free peptide at 4.4% HSA,Human GLP1R,0.29%
same,safety margin at the maximum proposed human dose of 2000 μg,[2],0.8
same,% DPP cleaved product/+1 DPP cleaved product,[3],<1%

# Source: patent US20200354426A1 (MEDIMMUNE LIMITED, priority 2016, published 2020)
